Consider one compound from US8906885B2 (dated 2014).

Where two headings read alike, the source gives them in different places.

For one series, the system named is ALK+ NSCLC. As to conditions: patients treated with crizotinib in clinical trials to date; cited from earlier work.

Take `C[C@@H](Oc1cc(-c2cnn(C3CCNCC3)c2)cnc1N)c1c(Cl)ccc(F)c1Cl` [crizotinib, reference compound]: the “median time to disease progression” value in the series on ALK+ NSCLC was 10 months. For the same compound, the T/C value with H3122 xenografts (crizotinib 50 mg/kg p.o. 5×/week) stood at 55%; with H3122 xenografts (crizotinib at its MTD (100 mg/kg), 5×/week), 39%. Further, the body weight entry in the series with H3122 xenografts (crizotinib 100 mg/kg) is “significant losses of body weight”.
